Assay results taken from US20120016019A1, “PHARMACEUTICAL COMPOSITION FOR TREATING OR PREVENTING CANCER” (priority 2010, published 2012).

What was measured:
[1] = test system: TT; assay: Viability by trypan blue staining, TT; format: cell-based; conditions: 2nd week (recovery), 7 d, single value
[2] = test system: HeLa; conditions: human, 48 h, 220 nM
Method: (§1) Cells were plated into 48-well Corning CellBind™ plates at densities of 20,000 cells for normal cells and 10,000˜20,000 cells for cancer cells. 24 to 48 h after plating, cells were treated with the composition according to the invention at concentrations of 4.5e-2M. The first time point treated with the composition of the invention is 0 h. At 3 days after the first treatment with the composition of the invention, medium was changed and the composition of the invention at the same concentrations were added to the cultured cells.
(§2) Cells were harvested using Trypsin-EDTA at the designated time points. When total cells for each well were counted with a Beckman-Coulter Z1 Particle Characterization Unit, the vertical axis represents 1/20 of cell number in the Figures attached to the specification, while when counted with a Beckman-Coulter Vi-Cell, the vertical axis represents cell number in the Figures. Two 48-well plates were used per cell line, and they were measured at 0 h, 12 h, 24 h, 48 h, 4 d and 7 d, respectively.
(§3) The viability was determined by using the trypan blue staining in the well of cell counting.

[3] = test system: MDA-MB-231; conditions: human, 7 d, 220 nM
Method: as §1, §2, §3

CC(=O)O[C@H]1C(=O)[C@@]2(C)[C@H]([C@H](OC(=O)c3ccccc3)[C@]3(O)C[C@H](OC(=O)[C@H](O)[C@@H](NC(=O)c4ccccc4)c4ccccc4)C(C)=C1C3(C)C)[C@]1(OC(C)=O)CO[C@@H]1C[C@@H]2O [Taxol]
33.3%: viability (%) calculated from the cell counts [1] | viability (%) [2] | viability (%) [3]
